ChEMBL document CHEMBL1148323, “Conformationally constrained peptide analogues of pTyr-Glu-Glu-Ile as inhibitors of the Src SH2 domain binding” (J Med Chem, 2004)

Amino acid sequences for entries named in this document (tags omitted). A change or cut given only in a name is not applied to a line headed by its entry.
UniProt P12931: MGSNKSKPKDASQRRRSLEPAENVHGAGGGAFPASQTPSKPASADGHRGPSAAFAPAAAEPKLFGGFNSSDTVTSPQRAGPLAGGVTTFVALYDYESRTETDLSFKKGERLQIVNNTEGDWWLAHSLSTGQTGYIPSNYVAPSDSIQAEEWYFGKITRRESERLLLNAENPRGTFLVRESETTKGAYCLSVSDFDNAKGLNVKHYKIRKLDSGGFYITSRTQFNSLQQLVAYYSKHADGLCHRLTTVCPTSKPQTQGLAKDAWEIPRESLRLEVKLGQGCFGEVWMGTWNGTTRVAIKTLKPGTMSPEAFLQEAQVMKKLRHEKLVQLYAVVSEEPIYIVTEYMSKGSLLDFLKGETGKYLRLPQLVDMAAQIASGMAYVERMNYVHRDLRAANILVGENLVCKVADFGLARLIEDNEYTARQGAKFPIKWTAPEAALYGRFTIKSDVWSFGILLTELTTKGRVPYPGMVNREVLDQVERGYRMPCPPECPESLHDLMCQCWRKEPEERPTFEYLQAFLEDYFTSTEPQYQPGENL

Target: Proto-oncogene tyrosine-protein kinase Src (Homo sapiens, UniProt P12931)
Test: Concentration of compound required for inhibiting the binding of the fluorescent probe to the c-Src tyrosine kinase SH2 domain by 50%

CC[C@H](C)[C@H](NC(=O)[C@H](CCC(=O)O)NC(=O)[C@H](CCC(=O)O)NC(=O)[C@H](Cc1ccc(OP(=O)(O)O)cc1)NC(C)=O)C(=O)O
IC50: 6.5 µM
